Literature values as cited in PubChem BioAssay AID977610 (Shanghai Institute of Organic Chemistry, 2014).

Assays:
Test in all cases: PubChem AID 977610
1ZXV A = details: PDB protein-ligand complexes, literature Ki; PDB entry 1ZXV
FK506 binding protein = details: PDB protein-ligand complexes, literature Ki, protein: FK506 binding protein
chitinase b = details: PDB protein-ligand complexes, literature Ki; protein: chitinase b; PDB entry 1O6I
beta-lactamase = details: PDB protein-ligand complexes, literature Ki; protein: beta-lactamase; PDB entry 1MXO
[1] = biological target: 3-phosphoinositide dependent protein kinase-1; details: PDB protein-ligand complexes, literature Ki; protein: 3-phosphoinositide dependent protein kinase-1; PDB entry 1W1D
thymidylate kinase = details: PDB protein-ligand complexes, literature Ki; protein: thymidylate kinase; PDB entry 1W2G
HIV-1 Protease = details: PDB protein-ligand complexes, literature Ki; protein: HIV-1 Protease; PDB entry 3QAA
[2] = biological target: dihydrodipicolinate synthase; details: PDB protein-ligand complexes, literature Ki; protein: dihydrodipicolinate synthase; PDB entry 1YXD
[3] = biological target: Glycogen synthase kinase-3 beta; details: PDB protein-ligand complexes, literature Ki; protein: Glycogen synthase kinase-3 beta; PDB entry 4iq6
Glycogen phosphorylase = details: PDB protein-ligand complexes, literature Ki; protein: Glycogen phosphorylase; PDB entry 3G2N
[4] = biological target: human tryoptophan hydroxylase type 1; details: PDB protein-ligand complexes, literature Ki; protein: human tryoptophan hydroxylase type 1; PDB entry 3HF8
[5] = biological target: Acetylcholine-binding protein nAChR; details: PDB protein-ligand complexes, literature Ki; protein: Acetylcholine-binding protein nAChR; PDB entry 4nzb
aiia-like protein = details: PDB protein-ligand complexes, literature Ki; protein: aiia-like protein; PDB entry 2BR6
coagulation factor xa = details: PDB protein-ligand complexes, literature Ki; protein: coagulation factor xa; PDB entry 2BOH
[6] = biological target: E.Coli (lacZ) beta-galactosidase (R599A); details: PDB protein-ligand complexes, literature Ki, protein: E.Coli (lacZ) beta-galactosidase (R599A)
[7] = biological target: cell division protein kinase 2; details: PDB protein-ligand complexes, literature Ki; protein: cell division protein kinase 2; PDB entry 2CLX
ribonuclease a = details: PDB protein-ligand complexes, literature Ki; protein: ribonuclease a; PDB entry 1W4P
ribonuclease A (RNase A) = details: PDB protein-ligand complexes, literature Ki, protein: ribonuclease A (RNase A)
1PWP A = details: PDB protein-ligand complexes, literature Ki; PDB entry 1PWP
[8] = biological target: 3-DEHYDROQUINATE DEHYDRATASE; details: PDB protein-ligand complexes, literature Ki; protein: 3-DEHYDROQUINATE DEHYDRATASE; PDB entry 2XD9
[9] = biological target: hypothetical protein ydce; details: PDB protein-ligand complexes, literature Ki; protein: hypothetical protein ydce; PDB entry 1GYX
coagulation factor x = details: PDB protein-ligand complexes, literature Ki; protein: coagulation factor x; PDB entry 2BQW
acetylcholinesterase = details: PDB protein-ligand complexes, literature Ki; protein: acetylcholinesterase; PDB entry 1H23
[10] = biological target: Cellobiose Phosphorylase(CBP); details: PDB protein-ligand complexes, literature Ki; protein: Cellobiose Phosphorylase(CBP); PDB entry 3QFY
glutamate receptor 2 = details: PDB protein-ligand complexes, literature Ki; protein: glutamate receptor 2; PDB entry 2CMO
[11] = biological target: Peptide deformylase 1B (PDF1B); details: PDB protein-ligand complexes, literature Ki; protein: Peptide deformylase 1B (PDF1B); PDB entry 3O3J
[12] = biological target: CAMP-DEPENDENT PROTEIN KINASE; details: PDB protein-ligand complexes, literature Ki, protein: CAMP-DEPENDENT PROTEIN KINASE
[13] = biological target: Soluble acetylcholine receptor (Mutant II); details: PDB protein-ligand complexes, literature Ki; protein: Soluble acetylcholine receptor (Mutant II); PDB entry 3SIO
[14] = biological target: Soluble acetylcholine receptor (Mutant III); details: PDB protein-ligand complexes, literature Ki; protein: Soluble acetylcholine receptor (Mutant III); PDB entry 3SH1
Factor VIIa = details: PDB protein-ligand complexes, literature Ki; protein: Factor VIIa; PDB entry 4ng9
[15] = biological target: stalked-cell differentiation controlling protei; details: PDB protein-ligand complexes, literature Ki; protein: stalked-cell differentiation controlling protei; PDB entry 1W25
[16] = biological target: human Leukotriene A-4 hydrolase (LTA4H); details: PDB protein-ligand complexes, literature Ki; protein: human Leukotriene A-4 hydrolase (LTA4H); PDB entry 3b7u

For `O=C(O)CCN1C(=O)/C(=C\c2ccc(-c3ccc(Cl)cc3)o2)SC1=S`, the Ki (1ZXV A) is listed as 0.8 µM.

In the case of `CC1(C)COC(=O)CCCCCCCCCCCOC(=O)[C@@H]2CCCCN2C(=O)C1=O`, the Ki (FK506 binding protein; PDB entry 1FKI) is given as 0.1 µM.

In the case of `CCC(C)(C)C(=O)C(=O)N1CCCC[C@H]1C(=O)O[C@H](CCc1ccccc1)c1ccccc1`, the Ki (FK506 binding protein; PDB entry 1FKG) is given as 0.01 µM.

In the case of `O=C[C@H]1CCCN1`, the Ki (chitinase b) is listed as 650 µM.

For `O=C(Cc1cccs1)N[C@H]([Al])c1cccc(C(=O)O)c1`, the Ki (beta-lactamase) is listed as 0.001 µM.

For `O=P(O)(O)OC1[C@H](O)[C@H](OP(=O)(O)O)C(OP(=O)(O)O)[C@H](OP(=O)(O)O)[C@H]1O` (some centres not stated), the Ki [1] is listed as 0.3 µM.

In the case of `Cc1cn([C@H]2C[C@H](O)[C@@H](CO)O2)c(=O)[nH]c1=O`, the Ki (thymidylate kinase) is given as 27 µM.

For `COc1ccc(S(=O)(=O)N(CC(C)C)C[C@@H](O)[C@H](Cc2ccccc2)NC(=O)O[C@H]2CO[C@H]3OC[C@H](OC)[C@H]32)cc1`, the Ki (HIV-1 Protease) is given as 2.9 pM.

In the case of `NCCCC[C@H](N)C(=O)O`, the Ki [2] is given as 5 µM.

In the case of `Clc1cc(-c2c[nH]c3ncccc23)cc(NC2CCCCC2)n1`, the Ki [3] is listed as 0.058 µM.

In the case of `O=C(N[C@@H]1O[C@H](CO)[C@@H](O)[C@H](O)[C@H]1O)c1ccccc1`, the Ki (Glycogen phosphorylase) is listed as 81 µM.

In the case of `Nc1nc(O[C@H](c2ccc(-c3cccc(F)c3)cc2)C(F)(F)F)cc(-c2ccc(C[C@H](N)C(=O)O)cc2)n1`, the Ki [4] is given as 0.31 µM.

For `N#Cc1cccc(-c2nc(-c3cccnc3)no2)c1`, the Ki [5] is given as 67 µM.

In the case of `N[C@H]1CCOC1=O`, the Ki (aiia-like protein) is listed as 1100 µM.

For `CC(C)N1CCC(NC(=O)c2cc3ccccc3n2Cc2cc(-c3ccc(Cl)s3)on2)CC1`, the Ki (coagulation factor xa) is given as 0.003 µM.

For `O=C1O[C@H](CO)[C@H](O)[C@H](O)[C@H]1O`, the Ki ([6]; PDB entry 3MV0) is listed as 140 µM.

In the case of `CC(C)S[C@@H]1O[C@H](CO)[C@H](O)[C@H](O)[C@H]1O`, the Ki ([6]; PDB entry 3MUZ) is given as 350 µM.

For `Nc1n[nH]c(N)c1N=Nc1ccc(O)cc1`, the Ki [7] is given as 13.3 µM.

For `O=c1ccn([C@H]2C[C@H](OP(=O)(O)O)[C@@H](CO)O2)c(=O)[nH]1`, the Ki (ribonuclease a) is listed as 18 µM.

In the case of `O=c1ccn([C@@H]2O[C@H](COP(=O)(O)OP(=O)(O)O)[C@@H](O)[C@H]2O)c(=O)[nH]1`, the Ki (ribonuclease A (RNase A); PDB entry 3DXH) is listed as 650 µM.

For `Cc1cc(N)c2cc(NC(=O)Nc3ccc4nc(C)cc(N)c4c3)ccc2n1`, the Ki (1PWP A) is listed as 0.5 µM.

For `C/C=C/c1cc2c(s1)[C@@H](O)[C@H](O)C[C@]2(O)C(=O)O`, the Ki [8] is given as 0.35 µM.

For `O=C(O)c1ccccc1`, the Ki [9] is given as 3300 µM.

In the case of `CC(C)N1CCC(NC(=O)c2cc3ccccc3n2CC(=O)Nc2ccc(Cl)cc2)CC1`, the Ki (coagulation factor x) is given as 0.003 µM.

In the case of `O=c1ccc2c([nH]1)CCC[C@@H]2NCCCCCCCCCCCCN[C@H]1CCCc2[nH]c(=O)ccc21`, the Ki (acetylcholinesterase) is given as 0.0045 µM.

In the case of `OC[C@H]1CNC[C@@H](O)[C@@H]1O`, the Ki [10] is given as 0.75 µM.

In the case of `CN1CCc2c(-c3ccc(S(=O)(=O)N(C)C)cc3)cc3c(c2C1)NC(=O)/C3=N/O[C@@H](CCO)C(=O)O`, the Ki (glutamate receptor 2) is listed as 0.394 µM.

In the case of `CO[C@H]1C[C@@H]2CC[C@@H](C)[C@@](O)(O2)C(=O)C(=O)N2CCCC[C@H]2C(=O)O[C@H]([C@H](C)C[C@@H]2CC[C@@H](O)[C@H](OC)C2)CC(=O)[C@H](C)/C=C(\C)[C@@H](O)[C@@H](OC)C(=O)[C@H](C)C[C@H](C)/C=C/C=C/C=C/1C`, the Ki (FK506 binding protein; PDB entry 1PBK) is listed as 0.0009 µM.

For `O=c1ccn([C@@H]2O[C@H](COP(=O)(O)O)[C@@H](O)[C@H]2O)c(=O)[nH]1`, the Ki (ribonuclease A (RNase A); PDB entry 3DXG) is given as 4000 µM.

In the case of `O=C(Cc1c[nH]c2ccc(Br)cc12)NO`, the Ki [11] is listed as 0.4 µM.

In the case of `Cc1[nH]nc2ccc(-c3cncc(OC[C@@H](N)Cc4c[nH]c5ccccc45)c3)cc12`, the Ki ([12]; PDB entry 2JDS) is given as 0.0063 µM and the Ki ([12]; PDB entry 2JDV) is given as 0.0063 µM.

For `CCN1C[C@]2(COC(=O)c3ccccc3N3C(=O)C[C@H](C)C3=O)CC[C@H](OC)[C@@]34[C@@H]5C[C@H]6[C@H](OC)[C@@H]5[C@](O)(C[C@@H]6OC)[C@@](O)([C@@H](OC)[C@H]23)[C@@H]14`, the Ki [13] is listed as 0.01 µM and the Ki [14] is listed as 0.041 µM.

In the case of `CCOc1cc([C@@H](Nc2ccc3c(N)nccc3c2)C(=O)NCc2cccc(S(N)(=O)=O)c2)ccc1OC(C)C`, the Ki (Factor VIIa) is listed as 0.075 µM.

In the case of `Nc1nc2c(ncn2[C@@H]2O[C@H](COP(=O)(O)O)[C@@H](O)[C@H]2O)c(=O)[nH]1`, the Ki [15] is given as 0.5 µM.

For `C[C@H](NC(=O)[C@@H](CC(=O)NO)Cc1ccccc1)C(=O)O`, the Ki [16] is given as 0.018 µM.
